Data set [1] in a line: PS and Vp of the blood-nerve barrier, radioiodinated I.V. bolus. It counts as in vivo, rat (Sprague-Dawley). As for the experimental part:
(§1) Free radioactive iodine was separated from the radiolabeled conjugates and agents by dialysis against 0.2M NaI.
(§2) After the final blood sample was collected, the animal was sacrificed, the brain and meninges removed, and the brain dissected into the cortex, caudateputamen (neostriatum), hippocampus, thalamus, brain stem, and cerebellum. The sciatic nerve was also rapidly removed and desheathed. Tissue was lyophilized, and dry weights were determined with a microbalance and converted to respective wet weights with wet weightry weight ratios previously determined for the desheathed rat sciatic nerve and the various brain regions. […] Statistical evaluations were performed using the t-test with significance accepted at the P<0.05 level.

A short description of data set [2]: PS and Vp of the blood-brain barrier, radioiodinated I.V. bolus. The class given is in vivo, rat (Sprague-Dawley). Conditions: x ± SEM. As to the method:
as §1, §2

From US5670477A, “Method to enhance permeability of the blood/brain blood/nerve bariers to therapeutic agents” (Poduslo; Joseph F., priority 1995, dated 1997) come the findings set out here.

On to “ALB: Human albumin (Mr =67,000) isolated from normal human plasma”, for which the “PS of the BNB” value in data set [1] (nerve, x ± SEM) came out at 0.19 ± 0.03 ml/g/sec × 10^6. Also, the “Vp (residual plasma volume) of the BNB” value in data set [1] (nerve, x ± SEM) came to 1.86 ± 0.12 µL/g. Also, the “PS of the BBB” value was 0.43 ± 0.03 ml/sec × 10^6 in data set [2] (brain stem); 0.11 ± 0.02 ml/sec × 10^6 in data set [2] (caudate-putamen); 0.39 ± 0.06 ml/sec × 10^6 in data set [2] (cerebellum); 0.20 ± 0.02 ml/sec × 10^6 in data set [2] (hippocampus); 0.23 ± 0.03 ml/sec × 10^6 in data set [2] (thalamus). Moreover, the “Vp of the BBB” value in data set [2] (brain stem) came out at 10.83 ± 0.63 µL/g; in data set [2] (caudate-putamen) it was 4.99 ± 0.49 µL/g; in data set [2] (cerebellum), 11.94 ± 0.94 µL/g; in data set [2] (cortex) it was 4.85 ± 0.59 µL/g; in data set [2] (hippocampus) it was 6.23 ± 0.30 µL/g; in data set [2] (thalamus), 8.02 ± 0.39 µL/g.
Take “SPD-ALB: albumin modified with spermidine using water-soluble carbodiimide at pH 4.7”: in data set [1] (nerve), the “PS of the BNB, RI vs. native protein” value is 164.8 and the “Vp of the BNB, RI vs. native protein” value worked out at 1.7. Also, the “PS of the BNB” value in data set [1] (nerve / endoneurium) stood at 3.13e-05 mL/s. Moreover, in data set [1] (nerve, x ± SEM), the “PS of the BNB” value came out at 31.32 ± 5.43 ml/g/sec × 10^6 and the “Vp (residual plasma volume) of the BNB” value was found to be 3.15 ± 0.72 µL/g.
